## Yeast mating assay 1: variants of the scFv Ab-14

Antigen: PDVDLGDISGINAS, a 14-residue peptide of the SARS-CoV-2 spike HR2 region.

Parent scFv Ab-14: VH joined to VL by a (GGGGS)3 linker. Changes lie in the heavy chain CDRs alone.
VH: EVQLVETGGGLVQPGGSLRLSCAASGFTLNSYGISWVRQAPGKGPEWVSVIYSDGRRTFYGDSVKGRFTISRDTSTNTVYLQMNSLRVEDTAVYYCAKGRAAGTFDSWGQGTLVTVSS
VL: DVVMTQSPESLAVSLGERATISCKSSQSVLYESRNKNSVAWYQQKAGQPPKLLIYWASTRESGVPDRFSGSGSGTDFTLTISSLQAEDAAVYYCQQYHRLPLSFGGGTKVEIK

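The starting antibody came from a phage panning campaign against this peptide. Library AAYL49 holds single substitutions and randomly drawn double and triple substitutions in the CDRs. In AlphaSeq, yeast of one mating type display the scFv and yeast of the other type display the target. Mating (16 h, 30 °C) was followed by selection of diploids and sequencing of their barcodes. The ratio of observed to expected reads was calibrated, replicate by replicate, on BCL2-family standards whose Kd was known from biolayer interferometry. There are three technical replicates.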

Each variant is given by its three heavy chain CDRs, as the data file delimits them; those of the parent are GFTLNSYGIS, VIYSDGRRTFYGDSVK, GRAAGTFDS. Affinities are written as log10 Kd with Kd in nM; a lower number is a better binder. The mean shown is taken over the replicates in which the pair was detected. Where no diploid with the target was found in that replicate, the entry reads "nd": below detection, most likely a poor binder, though not proof of it.

CDR-H1,CDR-H2,CDR-H3,"replicates, log10 nM","mean, log10 nM",control signals
GVMLNSYKIS,VIYSDGRRTFYGDSVK,GRAAGTFDS,nd / nd / 6.10,6.10,4 of 9 (4.62)
GFTLNSYGIS,VIYSDGFRTFYGDSVV,GRAAGTFDS,nd / nd / nd,nd,0 of 9
GFTLHSYGES,VIYSDGRRTFYGDSVK,GEAAGTFDS,nd / nd / nd,nd,0 of 9
GFTLNSYGIS,VIYSDGRNTFYGDSVG,CRAAGTFDS,nd / nd / 5.00,5.00,1 of 9 (3.62)
GFTLNMYGIS,VIYSDGRRCFYGDSVK,GRAAGTFVS,4.15 / 2.57 / 3.41,3.37,4 of 9 (3.89)
GFTLNSYRIM,VIYSDGRRTFYGDSVK,GRAAGTFDS,nd / nd / nd,nd,2 of 9 (3.51)
HFTANSYGIS,VIYSDGRRTFYGDSVK,GRAAGYFDS,nd / 3.39 / 5.90,4.65,2 of 9 (5.18)
GFTLNSYGIS,VIYSDVRRTFYGDSVK,ERAAGTFDS,nd / nd / nd,nd,0 of 9
GFTYNSYGIS,VIYSDGRRTFEGDSVK,GRQAGTFDS,nd / nd / nd,nd,2 of 9 (3.46)
GFTLNRYGIS,VIYSDGRRTFYGDSVK,GRAAWTPDS,nd / nd / nd,nd,0 of 9
GFTLNSYGIS,VIYGDGRVTFYGDSFK,GRAAGTFDS,nd / nd / nd,nd,1 of 9 (4.25)
GFTLNSYGIS,VIYSDLRRTFYGDSVF,GRAAGTFDQ,nd / 3.73 / 5.22,4.48,2 of 9 (4.28)
GFTLNSYGIS,VIYSDGSQTFYGDSVY,GRAAGTFDS,nd / nd / nd,nd,0 of 9
GFTLNSYGIS,VIYSDGRRTCYGDSVK,GRGAGTIDS,nd / nd / nd,nd,0 of 9
GFTLNSYLGS,VIYSDGRRTFYGDSVR,GRAAGTFDS,nd / nd / nd,nd,1 of 9 (4.91)
GFTLNSYGIS,VIYSDGRRTFYGDSVK,GRAAGTYDK,nd / nd / nd,nd,0 of 9
LFTLNSYGIS,VIYSDGRRTFYGDSVK,GRATGTFDT,3.82 / 3.45 / 3.30,3.52,7 of 9 (4.98)
GFTDNSYGIS,VIYSDGRRTFYGDSVK,GRAAHTFDS,nd / nd / nd,nd,2 of 9 (3.13)
GFALNSYGIS,VIYSDGRRTFYGDSVK,GRQAGTFDS,nd / nd / nd,nd,0 of 9
GFTLNSYGIS,VIYSSGRRTFYGDSVK,PRAAMTFDS,nd / nd / nd,nd,2 of 9 (3.83)
GFTLESYGIS,YIYSDGRRTFYGDSVK,GDAAGTFDS,nd / 3.77 / nd,3.77,3 of 9 (3.97)
GFTLNSYGSS,VIYMDGRRTKYGDSVK,GRAAGTFDS,nd / 3.09 / nd,3.09,1 of 9 (2.71)
GFTLNSYGIS,PIYSDGVRTFYGDSVK,GRAAGTFDS,nd / 3.93 / 4.50,4.22,1 of 9 (3.77)
GFTLNSYGIS,VQYSDGRRTDYGDSVK,GRCAGTFDS,4.53 / 5.34 / nd,4.93,4 of 9 (4.75)
GFTLNSYGIT,VIYSDGRRTFYGDKVK,GRAAGTFDS,5.54 / nd / nd,5.54,1 of 9 (4.39)
GFTLLSYGIS,MIYSDGRRTFHGDSVK,GRAAGTFDS,4.04 / nd / nd,4.04,2 of 9 (3.01)
GFTLNNYGIS,VIYYDGRRTFYGDSVW,GRAAGTFDS,2.36 / 3.13 / 2.46,2.65,0 of 9
GFCLNSYGIS,VIYSWGRRTFYGDSVV,GRAAGTFDS,nd / nd / nd,nd,0 of 9
GFTLNSYGHS,VIYSDGRSTFYGDSVK,GAAAGTFDS,nd / 3.20 / nd,3.20,0 of 9
GFTLNSYGIS,VVYFSGRRTFYGDSVK,GRAAGTFDS,3.04 / nd / nd,3.04,0 of 9
GFTCNSYGIS,VIYSDGDRTFYGDSVK,GRAAGTFDL,nd / nd / nd,nd,2 of 9 (3.33)
GFTLNSYGIS,VIYSDGRRTFYGEIVK,GRAPGTFDS,nd / nd / nd,nd,0 of 9
GFTLNSEGIS,VIYSDGRRTFYGDSRK,GRAQGTFDS,nd / 5.39 / nd,5.39,2 of 9 (3.70)
GFTLNSYYIS,VIYSPGRRTFYMDSVK,GRAAGTFDS,nd / nd / nd,nd,0 of 9
GFTLNSYGIS,VIYSDIRRTFYGWSVK,RRAAGTFDS,nd / nd / nd,nd,3 of 9 (4.13)
GFTLNSYCIS,VIYSDGRRAFYPDSVK,GRAAGTFDS,nd / nd / nd,nd,3 of 9 (3.85)
GFELNSYGAS,VIYSDGRRTFYGDSVK,GRAAGTVDS,nd / nd / nd,nd,3 of 9 (2.11)
GFTLNSYGIS,VIYSDGRRYFYSDSVK,GRAAGTFTS,nd / nd / nd,nd,0 of 9
GFTLNSYGIS,VWYSDGRRTFYGDSYK,GRAAGTFDS,3.75 / nd / nd,3.75,2 of 9 (3.70)
GFTLNSYGIS,VPYSDGRSTFYVDSVK,GRAAGTFDS,nd / nd / nd,nd,2 of 9 (3.68)
GFTLNSYGIS,VIYSDGRPTFDGDSVK,GRAAGYFDS,nd / 3.84 / nd,3.84,2 of 9 (4.23)
GFTLSSYGIS,VIASDGARTFYGDSVK,GRAAGTFDS,nd / nd / nd,nd,0 of 9
GFTLNSYGID,VIYSDGRRTFYGDSVG,GRAAGCFDS,nd / nd / nd,nd,1 of 9 (5.03)
GFTLNSYGIR,VIASDGRRTFYGDCVK,GRAAGTFDS,nd / 3.58 / nd,3.58,2 of 9 (3.55)
GFTLNSYGIS,VIYSNGFRTFAGDSVK,GRAAGTFDS,nd / nd / nd,nd,0 of 9
GFTLNRYGIS,VIYSDGRPTFYGDYVK,GRAAGTFDS,nd / 4.91 / 4.74,4.83,4 of 9 (4.10)
GFTLNSYGIS,VIYSDFRRTFYGDSHK,GCAAGTFDS,nd / nd / nd,nd,0 of 9
GFTLNSYGIS,VIYSDGRRPFYGDSVK,WRAAGTFDS,4.29 / nd / 3.95,4.12,2 of 9 (3.56)
GFTLNLYGIS,VIYSDGNRTFYGDSVK,GRFAGTFDS,2.49 / 1.47 / 1.84,1.93,0 of 9

The 3 strongest on average among those seen in every replicate, once more:

{"CDR-H1": "GFTLNLYGIS", "CDR-H2": "VIYSDGNRTFYGDSVK", "CDR-H3": "GRFAGTFDS", "replicates, log10 nM": "2.49 / 1.47 / 1.84", "mean, log10 nM": "1.93", "control signals": "0 of 9"}
{"CDR-H1": "GFTLNNYGIS", "CDR-H2": "VIYYDGRRTFYGDSVW", "CDR-H3": "GRAAGTFDS", "replicates, log10 nM": "2.36 / 3.13 / 2.46", "mean, log10 nM": "2.65", "control signals": "0 of 9"}
{"CDR-H1": "GFTLNMYGIS", "CDR-H2": "VIYSDGRRCFYGDSVK", "CDR-H3": "GRAAGTFVS", "replicates, log10 nM": "4.15 / 2.57 / 3.41", "mean, log10 nM": "3.37", "control signals": "4 of 9 (3.89)"}

Nonspecific signal, from three strains lacking the peptide, appeared in 15% of pairings of library AAYL49, centred on 4.06 (5% of these signals below 2.83); values are not corrected for it. The control count says in how many pairings with the empty strains this scFv gave a signal, with their mean in brackets.

The measurements come from Engelhart et al. 2022 (doi:10.1038/s41597-022-01779-4) through the FLAb antibody collection.